In patent KR20220012314A (dated 2022):

Assays:
[1] = molecular target: T1, 재조합 인간 BCMA-his 단백질 (Cat#BCA-H522Y, 아크로 바이오시스템즈) (human, UniProt Q02223 1-54, biotin-labelled in the capture ELISA and the benchmark-blocking ELISA); experiment: capture ELISA: antibody captured on plate, biotin-labelled human BCMA-his in solution
T1 construct: Bought protein, MW 7.8 kDa as printed; not shown: his tag
T1 sequence: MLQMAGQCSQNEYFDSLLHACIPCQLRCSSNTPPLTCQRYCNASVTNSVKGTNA

[2] = molecular target: T1, 재조합 인간 BCMA-his 단백질 (Cat#BCA-H522Y, 아크로 …); experiment: capture ELISA with biotin-labelled human BCMA-his
[3] = molecular target: T1, 재조합 인간 BCMA-his 단백질 (Cat#BCA-H522Y, 아크로 …); experiment: capture ELISA with biotin-labelled human BCMA-his; remark: listed apart in the source
[4] = molecular target: T1, 재조합 인간 BCMA-his 단백질 (Cat#BCA-H522Y, 아크로 …); experiment: competition ELISA: BCMA-his coated, antibody titrated, then biotin-labelled human BAFF-Fc; competitor BAFF-Fc
[5] = molecular target: T1, 재조합 인간 BCMA-his 단백질 (Cat#BCA-H522Y, 아크로 …); experiment: SPR (Biacore), human BCMA
[6] = molecular target: T1, 재조합 인간 BCMA-his 단백질 (Cat#BCA-H522Y, 아크로 …); experiment: competition ELISA: BM coated, antibody titrated and premixed with biotin-labelled human BCMA-his; competitor BM
[7] = molecular target: T1, 재조합 인간 BCMA-his 단백질 (Cat#BCA-H522Y, 아크로 …); experiment: as above; remark: listed apart in the source
[8] = molecular target: T1, 재조합 인간 BCMA-his 단백질 (Cat#BCA-H522Y, 아크로 …); experiment: competition ELISA: BCMA-his coated, antibody titrated, then biotin-labelled human BAFF-Fc; competitor BAFF-Fc; remark: listed apart in the source

- EC50 [1]: 1.47 nM
- EC50 [2]: 1.47 nM
- EC50 [3]: 1.7 ng/mL and 2.14 ng/mL and 2.39 ng/mL
- IC50 [4]: 9.04 nM
- Kd [5]: 2.22 nM
- IC50 [6]: 9.89 nM
- IC50 [7]: 9.89 nM
- IC50 [8]: 9.04 nM
B1: 키메라 B1G3 (antibody, V domains shown)
VH: QIQLVQSGPELKKPGETVKISCKASGYTFTNHGMNWVKQAPGKGLKWMGWINTYTGEPTYADDFKGRFAFSLETSATTAYLQINNLRIEDTATYFCARYSYYGYYHAMDYWGQGTSVTVSS
VL: QIVLSQSPAILSASPGEKVTMTCRASSSVHYMHWYQQKPGSPPKPWIYATSNLASGVPARFSGSGSGTSYSLTISRVEAEDAATYYCQQWSSNPTFGGGTKLEIKR

- EC50 [1]: 1.25 nM
- EC50 [2]: 1.25 nM
- EC50 [3]: 0.832 ng/mL and 1.12 ng/mL and 1.05 ng/mL
- IC50 [4]: 2.29 nM
- Kd [5]: 1.25 nM
- IC50 [6]: 3.01 nM
- IC50 [7]: 3.01 nM
- IC50 [8]: 2.29 nM
B2: 키메라 B1C1 (antibody, V domains shown)
VH: B1 VH with T28I, H32F, G44D, T74N, T77S, Y80S, N84D, R87K, I88N, T115A
VL: B1 VL with A9T, K18E, H30F, P42S, N52T, T73S, Y86F

Substitutions are numbered along the chain they refer to. Values joined by “and” are separate entries in the source; they are usually repeats but may differ in a detail not shown here. Identical values can stand only once. Each block holds one binder with its values, some of them ahead of it.
